# Measured values as given in patent US10815444B2, “Use of specific derivatives of quaternized nitrogen compounds as additives in fuels and lubricants” (BASF SE, priority 2013, dated 2020).
# Conditions: concentration of 50% (w/w)
substance,measurement,value
"C12/14-NMe3-Methyl Oxalate [Comparative example 1, reference compound]",solubility in Solvent Naphtha,insoluble
